Test results from the supplement of paper PMC9005190.

Amino acid sequences for entries named in this document (tags omitted). A change or cut given only in a name is not applied to a line headed by its entry.
UniProt Q9GZQ6: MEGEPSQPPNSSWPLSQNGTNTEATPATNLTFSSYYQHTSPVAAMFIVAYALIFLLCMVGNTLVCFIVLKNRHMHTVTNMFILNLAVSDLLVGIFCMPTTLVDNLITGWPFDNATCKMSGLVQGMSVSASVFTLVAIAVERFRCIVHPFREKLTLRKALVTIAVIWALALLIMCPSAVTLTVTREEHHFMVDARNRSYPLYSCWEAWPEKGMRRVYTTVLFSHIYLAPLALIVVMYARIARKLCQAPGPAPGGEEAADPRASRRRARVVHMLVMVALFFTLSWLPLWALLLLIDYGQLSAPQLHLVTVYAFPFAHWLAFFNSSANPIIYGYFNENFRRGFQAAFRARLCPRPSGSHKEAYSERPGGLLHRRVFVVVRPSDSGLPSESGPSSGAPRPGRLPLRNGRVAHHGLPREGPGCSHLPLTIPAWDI

Biological target: NPFF1 (UniProt Q9GZQ6)
Test: pEC50 of agonist-induced pathway activation (ebBRET)

CC(C)C[C@H](NC(=O)[C@H](CC(N)=O)NC(=O)[C@@H]1CCCN1C(=O)[C@@H](N)C(C)C)C(=O)N1CCC[C@H]1C(=O)N[C@@H](CCC(N)=O)C(=O)N[C@@H](CCCN=C(N)N)C(=O)N[C@@H](Cc1ccccc1)C(N)=O [RFRP3]
Details	pEC50
pathway (G protein / arrestin sensor): G12	6.92
pathway (G protein / arrestin sensor): G13	6.69
pathway (G protein / arrestin sensor): G15	7.4
pathway (G protein / arrestin sensor): Gi1	8.05
pathway (G protein / arrestin sensor): Gi2	8.12
pathway (G protein / arrestin sensor): GoA	8.78
pathway (G protein / arrestin sensor): GoB	9.14
pathway (G protein / arrestin sensor): Gz	10.2
pathway (G protein / arrestin sensor): βarr1/GRK2	7.98
pathway (G protein / arrestin sensor): βarr2	7.36
pathway (G protein / arrestin sensor): βarr2/GRK2	7.77
